From ChEMBL document CHEMBL1125731, “2,3-Dihydrobenzofuran analogues of hallucinogenic phenethylamines” (J Med Chem, 1991) come the findings set out here.

The chains behind the UniProt entries cited, without tags or fusion partners. Where a name states a change or a piece, a line headed by the entry shows the natural chain unless it says otherwise.
UniProt P30994: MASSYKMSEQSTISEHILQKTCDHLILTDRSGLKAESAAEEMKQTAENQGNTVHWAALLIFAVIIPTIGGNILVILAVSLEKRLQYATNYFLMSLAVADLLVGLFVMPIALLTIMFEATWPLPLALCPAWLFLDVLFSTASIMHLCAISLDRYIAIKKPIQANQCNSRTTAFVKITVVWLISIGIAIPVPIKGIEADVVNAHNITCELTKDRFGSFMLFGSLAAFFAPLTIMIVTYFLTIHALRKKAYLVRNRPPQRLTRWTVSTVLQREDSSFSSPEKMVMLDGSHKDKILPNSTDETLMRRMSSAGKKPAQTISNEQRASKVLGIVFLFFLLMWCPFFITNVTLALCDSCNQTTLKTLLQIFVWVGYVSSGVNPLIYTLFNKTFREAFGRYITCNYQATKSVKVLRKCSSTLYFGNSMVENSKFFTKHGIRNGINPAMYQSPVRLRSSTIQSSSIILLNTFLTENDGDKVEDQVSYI
UniProt P08909: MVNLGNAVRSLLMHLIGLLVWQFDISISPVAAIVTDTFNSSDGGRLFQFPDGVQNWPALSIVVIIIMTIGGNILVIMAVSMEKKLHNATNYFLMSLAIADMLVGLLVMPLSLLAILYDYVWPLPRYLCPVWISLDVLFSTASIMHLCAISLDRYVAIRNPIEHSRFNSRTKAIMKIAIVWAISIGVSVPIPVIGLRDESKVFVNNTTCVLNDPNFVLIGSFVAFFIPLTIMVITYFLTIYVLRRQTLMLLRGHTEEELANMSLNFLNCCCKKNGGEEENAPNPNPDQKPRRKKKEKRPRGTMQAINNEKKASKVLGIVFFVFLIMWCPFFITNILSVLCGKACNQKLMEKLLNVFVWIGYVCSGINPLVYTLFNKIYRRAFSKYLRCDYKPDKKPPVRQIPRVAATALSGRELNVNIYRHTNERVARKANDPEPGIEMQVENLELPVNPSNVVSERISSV
UniProt P14842: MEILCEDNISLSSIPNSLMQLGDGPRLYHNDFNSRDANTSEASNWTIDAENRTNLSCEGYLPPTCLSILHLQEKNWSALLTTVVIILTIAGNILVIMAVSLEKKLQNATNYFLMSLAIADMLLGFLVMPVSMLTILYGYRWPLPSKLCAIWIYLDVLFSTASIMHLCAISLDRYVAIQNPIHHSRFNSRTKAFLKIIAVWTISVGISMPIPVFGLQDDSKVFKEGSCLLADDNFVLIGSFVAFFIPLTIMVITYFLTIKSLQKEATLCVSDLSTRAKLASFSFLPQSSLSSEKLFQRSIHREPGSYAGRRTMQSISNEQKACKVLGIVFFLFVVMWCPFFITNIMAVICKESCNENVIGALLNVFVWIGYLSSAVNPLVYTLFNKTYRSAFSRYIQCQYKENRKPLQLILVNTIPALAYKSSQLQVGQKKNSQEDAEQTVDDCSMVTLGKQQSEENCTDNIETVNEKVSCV

The target of the assay is Serotonin 2 (5-HT2) receptor (Rattus norvegicus, UniProt P30994+P08909+P14842). The assay can be described thus: Compound was evaluated for its ability to displace 0.25 nM [125I](R)-DOI from binding sites in rat frontal cortex. It counts as tissue-based.

Broadly, the Ki is a measure of affinity in units of concentration, obtained from inhibition or displacement. As for `COc1ccc(OC)c(CC(C)N)c1` (stereo unspecified), the Ki was found to be 465 nM.
